This is an account of results in patent US20210128457A1 (priority 2019, published 2021).

This data set has as its system cochlear hair cells. The experiment in a line: Gentamicin distribution in cochlear hair cells, RWS versus transcanal USM.

Gentamicin: where the note is “RWS, stood 3 minutes without ultrasound”, the “gentamicin uptake in hair cells (green fluorescence), basal turn” value is given as “only a small amount of green dot-like fluorescence could be found”. Also, the “gentamicin uptake in hair cells (green fluorescence), basal, second and third turn” value (transcanal USM) is “green fluorescence was found in the basal turn, the second turn, and third turn”.
